# pKd: −log10 of the molar value.
# Key:
# Staphylococcus aureus = test: Radial diffusion bactericidal assay, Staphylococcus aureus; type: cell-based; details: PROBIT analysis
# [1] = 3H-heparin binding assay (affinity and capacity); details: for Heparin Capacity: heparin bound at saturation
# Description: Briefly, each fragment was added to wells of a 96-well microtiter plate having a polyvinylidene difluoride membrane (Immunobilon-P, Millipore, Bedford, Mass.) disposed at the bottom of the wells. […] Positive control wells contained varying amounts of rBPI23. […] DuPont-NEN, Wilmington, Del.) were made in the blocking buffer and incubated in the BPI peptide-containing wells for one hour at 4° C. The unbound heparin was aspirated and the wells were washed three times with blocking buffer, dried and removed for quantitation in a liquid scintillation counter (Model 1217, LKB, Gaithersburg, Md.). Although BSA in the blocking buffer did show a low affinity and capacity to bind heparin, this was considered physiologically irrelevant and the background was routinely subtracted from the test compound signal.
# [2] = tested on: rough mutant E. coli J5 bacteria; test: Radial diffusion bactericidal assay, E. coli J5; type: cell-based; details: PROBIT analysis
# Description: BPI proteolytic fragments produced according to Example 1 were screened for bactericidal effects using rough mutant E. coli J5 bacteria in a radial diffusion assay. Specifically, an overnight culture of E. coli J5 was diluted 1:50 into fresh tryptic soy broth and incubated for 3 hours at 37° C. to attain log phase growth of the culture. Bacteria were then pelleted at 3,000 rpm for 5 minutes in a Sorvall RT6000B centrifuge (Sorvall Instruments, Newton, Conn.). 5 mL of 10 mM sodium phosphate buffer (pH 7.4) was added and the preparation was re-pelleted. […] The bacteria were diluted to 4×10^6 CFU/mL in 10 mL of molten underlayer agarose (at approximately 45° C.) and inverted repeatedly to mix in 15 mL polypropylene tubes conventionally used for this purpose.
# The entire contents of such tubes were then poured into a level square petri dish and distributed evenly by rocking the dish side-to-side. […] A series of wells were then punched into the hardened agarose using a sterile 3 mm punch attached to a vacuum apparatus. The punch was sterilized with 100% alcohol and allowed to air dry prior to use to avoid contaminating the bacterial culture.
# 5 or 10 μL of each of the BPI fragments were carefully pipetted into each well. As a negative control, dilution buffer (pH 8.3) was added to a separate well, and rBPI23 at concentrations of 5 μg/mL and 1 μg/mL were also added as positive controls. Each plate was incubated at 37° C. for 3 hours, and then 10 mL of molten overlayer agarose (at approximately 45° C.) was added into the level petri dish, allowed to harden and incubated overnight at 37° C. […] The bacterial zones were measured with a micrometer.
# [3] = tested on: E. coli 0111:B4 (smooth) bacteria; test: Radial diffusion bactericidal assay, E. coli 0111:B4; type: cell-based; details: PROBIT analysis
# RAW 264.7 cells = test: LPS neutralization cellular proliferation assay, RAW 264.7 cells; type: cell-based, mouse
# Description: In this assay, mouse RAW 264.7 cells (ATCC Accession No. T1B71), maintained in RPMI 1640 media (GIBCO), supplemented with 10 mM HEPES buffer (pH 7.4), 2 mM L-glutamine, penicillin (100U/mL), streptomcin (100 μg/mL), 0.075% sodium bicarbonate, […] 2-mercaptoethanol and 10% fetal bovine serum (Hyclone, Inc., Logan, Utah), were first induced by incubation in the presence of 50U/mL recombinant mouse y-interferon (Genzyme, Cambridge, Mass.) for 24 h prior to assay. Induced cells were then mechanically collected and centrifuged at 500×g at 4° C. and then resuspended in 50 mL RPMI 1640 media (without supplements), re-centrifuged and again resuspended in RPMI 1640 media (without supplements). The cells were counted and their concentration adjusted to 2×10^5 cells/mL and 100 μL aliquots were added to each well of a 96-well microtitre plate. The cells were then incubated for about 15 hours with E. coli O113 LPS (Control Standard. Assoc. of Cape Cod. Woods Hole, Mass.), which was added in 100 μL/well aliquots at a concentration of […] in serum-free RPMI 1640 media (this concentration being the result of titration experiments in which LPS concentration was varied between 50 pg/mL and 100 ng/mL). This incubation was performed in the absence or presence of BPI functional domain peptides in varying concentrations between 25 ng/mL and 50 μg/mL. Recombinant human BPI was used as a positive control at a concentration of 1 μg/mL. Cell proliferation was quantitatively measured by the addition of 1 μCi/well [^3H]-thymidine 5 hours after the time of initiation of the assay. After the 15-hour incubation, labeled cells were harvested onto glass fiber filters with a cell harvester (Inotech Biosystems, EQ-384, Sample Processing and Filter Counting System, Lansing, Mich.).
# Candida albicans = type: cell-based
# C. albicans = test: Radial diffusion fungicidal assay, Candida albicans; type: cell-based
Compound,"pmol added to well to achieve a 30 mm^2 bactericidal zone, S. aureus (Staphylococcus aureus)",pKd [1],Heparin Capacity [1],"pmol added to well to achieve a 30 mm^2 bactericidal zone, E. coli J5 [2]","pmol added to well to achieve a 30 mm^2 bactericidal zone, E. coli O111:B4 [3]",EC50 (peptide concentration at which the growth inhibitory effect of LPS was reversed by 50%) (RAW 264.7 cells),IC50 (peptide concentration at which RAW cell growth was inhibited by 50%) (RAW 264.7 cells),MIC C. alb (Candida albicans),C. albicans: pmol required for 30 mm^2 zone (C. albicans)
CC[C@H](C)[C@H](N)C(=O)N[C@@H](CCCCN)C(=O)N[C@H](C(=O)N[C@@H](CO)C(=O)NCC(=O)N[C@@H](CCCCN)C(=O)N[C@@H](Cc1c[nH]c2ccccc12)C(=O)N[C@@H](CCCCN)C(=O)N[C@@H](C)C(=O)N[C@@H](CCC(N)=O)C(=O)N[C@@H](Cc1cccc2ccccc12)C(=O)N[C@@H](CCCNC(=N)N)C(=O)N[C@@H](Cc1ccccc1)C(=O)N[C@@H](CC(C)C)C(=O)N[C@@H](CCCCN)C(=O)O)[C@@H](C)CC [BPI.80],"2,537.82 pmol",6.87,210.3 ng,655.37 pmol,b (no detectable activity up to 5 μg/well),35 ± 36 µg/mL,>50 µg/mL,–,–
CC[C@H](C)[C@H](N)C(=O)N[C@@H](CCCCN)C(=O)N[C@H](C(=O)N[C@@H](CO)C(=O)NCC(=O)N[C@@H](CCCCN)C(=O)N[C@@H](Cc1cccc2ccccc12)C(=O)N[C@@H](CCCCN)C(=O)N[C@@H](C)C(=O)N[C@@H](CCC(N)=O)C(=O)N[C@@H](Cc1ccccc1)C(=O)N[C@@H](CCCNC(=N)N)C(=O)N[C@@H](Cc1ccccc1)C(=O)N[C@@H](CC(C)C)C(=O)N[C@@H](CCCCN)C(=O)O)[C@@H](C)CC [BPI.84],"9,677.46 pmol",6.00,329.2 ng,11.63 pmol,"46,130.96 pmol",57 ± 28 µg/mL,— (No proliferation decrease up to 50 μg/ml),–,–
CC[C@H](C)[C@H](N)C(=O)N[C@@H](CCCCN)C(=O)N[C@H](C(=O)N[C@@H](CO)C(=O)NCC(=O)N[C@@H](CCCCN)C(=O)N[C@@H](Cc1cccc2ccccc12)C(=O)N[C@@H](CCCCN)C(=O)N[C@@H](C)C(=O)N[C@@H](Cc1ccccc1)C(=O)N[C@@H](CCCCN)C(=O)N[C@@H](CCCNC(=N)N)C(=O)N[C@@H](Cc1ccccc1)C(=O)N[C@@H](CC(C)C)C(=O)N[C@@H](CCCCN)C(=O)O)[C@@H](C)CC [BPI.89],"7,357.20 pmol",5.92,252.8 ng,229.09 pmol,"4,210.70 pmol",>50 µg/mL,11 ± 0.3 µg/mL,–,–
CC[C@H](C)[C@H](N)C(=O)N[C@@H](CCCCN)C(=O)N[C@H](C(=O)N[C@@H](CO)C(=O)NCC(=O)N[C@@H](CCCCN)C(=O)N[C@@H](Cc1cccc2ccccc12)C(=O)N[C@@H](CCCCN)C(=O)N[C@@H](C)C(=O)N[C@@H](Cc1ccccc1)C(=O)N[C@@H](Cc1ccccc1)C(=O)N[C@@H](CCCNC(=N)N)C(=O)N[C@@H](Cc1ccccc1)C(=O)N[C@@H](CC(C)C)C(=O)N[C@@H](CCCCN)C(=O)O)[C@@H](C)CC [BPI.90],"39,585.98 pmol",5.91,274.8 ng,83.11 pmol,"1,765.50 pmol",–,–,–,–
CC[C@H](C)[C@H](NC(=O)[C@H](CC(C)C)NC(=O)[C@H](CCCCN)NC(=O)CNC(=O)[C@@H](NC(=O)[C@H](CCCCN)NC(=O)[C@H](CO)NC(=O)[C@@H](N)CCCCN)C(C)C)C(=O)N[C@@H](CCC(N)=O)C(=O)N[C@@H](CC(C)C)C(=O)N1CCC[C@H]1C(=O)N[C@@H](Cc1c[nH]cn1)C(=O)N[C@@H](CCCCN)C(=O)N[C@@H](CCCCN)C(=O)O [BPI.135],b (no detectable activity up to 5 μg/well),–,–,"1,052.02 pmol","3,321.69 pmol",–,–,6.25 µg/mL,427.81 pmol
CC[C@H](C)[C@H](N)C(=O)N[C@@H](CCCCN)C(=O)N[C@H](C(=O)N[C@@H](CO)C(=O)NCC(=O)N[C@@H](CCCCN)C(=O)N[C@@H](Cc1c[nH]c2ccccc12)C(=O)N[C@@H](CCCCN)C(=O)N[C@@H](C)C(=O)N[C@@H](CCC(=O)O)C(=O)N[C@@H](CCCCN)C(=O)N[C@@H](CCCCN)C(=O)N[C@@H](Cc1ccccc1)C(=O)N[C@@H](CC(C)C)C(=O)N[C@@H](CCCCN)C(=O)O)[C@@H](C)CC [BPI.147],b (no detectable activity up to 5 μg/well),–,–,"8,385.00 pmol",b (no detectable activity up to 5 μg/well),–,–,100.00 µg/mL,>2558.17 pmol
CSCC[C@@H]1NC(=O)[C@H](CCCCN)NC(=O)[C@H](CC(C)C)NC(=O)[C@H](Cc2ccccc2)NC(=O)[C@H](CCCNC(=N)N)NC(=O)[C@H](CCCCN)NC(=O)[C@H](CCC(N)=O)NC(=O)[C@H](C)NC(=O)[C@H](CCCCN)NC(=O)[C@H](Cc2c[nH]c3ccccc23)NC(=O)[C@H](CCCCN)NC(=O)[C@@H](N)CSSC[C@@H](C(N)=O)NC(=O)[C@H](CO)NC1=O [BPI.168],b (no detectable activity up to 5 μg/well),–,–,"1,460.98 pmol","5,158.82 pmol",–,–,>100.00 µg/mL,–
